Literature values as cited in US20070197424A1, “Glatiramer acetate for use as an immuno-modulatory agent” (priority 2003, published 2007).

Tests used:
[1] = test system: metastatic melanoma; conditions: IL-2 added to chemotherapeutic regimens, metastatic melanoma patients; cited from earlier work
[2] = test system: hepatocellular carcinoma; conditions: cited from earlier work
[3] = 18 patients, 1 MIU/d subcutaneous until progression

Interleukin-2 [IL-2]
overall response rates [1]: up to 60% | complete responses (tumor resolution) [2, 3]: 11.1% | median overall survival [2, 3]: 24.5 months | median time to progression [2, 3]: 15.3 months | overall response rate [2, 3]: 16.6% | partial response [2, 3]: 5.5% | patients progressed during therapy [2, 3]: 11.1% | patients with stable disease lasting at least 4 months [2, 3]: 72.3% | toxicity ([2]; human, in vivo): only local
